Source: ChEMBL document CHEMBL1134281, “Monosaccharide-linked inhibitors of O(6)-methylguanine-DNA methyltransferase (MGMT): synthesis, molecular modeling, and structure-activity relationships” (J Med Chem, 2001)

Target: T1, Methylated-DNA--protein-cysteine methyltransferase (Homo sapiens, UniProt P16455)
T1 sequence (P16455 whole entry): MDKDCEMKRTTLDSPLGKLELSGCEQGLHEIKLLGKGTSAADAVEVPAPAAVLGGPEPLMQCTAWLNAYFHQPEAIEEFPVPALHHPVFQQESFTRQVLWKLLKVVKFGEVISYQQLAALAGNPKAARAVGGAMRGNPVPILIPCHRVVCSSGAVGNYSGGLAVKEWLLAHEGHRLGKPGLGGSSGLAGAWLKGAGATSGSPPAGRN
Assay: In vitro inhibition of MGMT using cell free extracts from HeLa S3 cells

`Nc1nc(OCc2ccccc2)c2[nH]cnc2n1` [6-O-BENZYLGUANINE] showed an IC50 of 620 nM.
